Values quoted from earlier work in US20220192984A1, “PHARMACEUTICAL COMPOSITIONS COMPRISING OTIC THERAPEUTIC AGENTS AND RELATED METHODS” (Frequency Therapeutics, Inc., priority 2018, published 2022).

The chains behind the UniProt entries cited, without tags or fusion partners. Residues count along the entry.
UniProt Q15910, whole entry, species assumed: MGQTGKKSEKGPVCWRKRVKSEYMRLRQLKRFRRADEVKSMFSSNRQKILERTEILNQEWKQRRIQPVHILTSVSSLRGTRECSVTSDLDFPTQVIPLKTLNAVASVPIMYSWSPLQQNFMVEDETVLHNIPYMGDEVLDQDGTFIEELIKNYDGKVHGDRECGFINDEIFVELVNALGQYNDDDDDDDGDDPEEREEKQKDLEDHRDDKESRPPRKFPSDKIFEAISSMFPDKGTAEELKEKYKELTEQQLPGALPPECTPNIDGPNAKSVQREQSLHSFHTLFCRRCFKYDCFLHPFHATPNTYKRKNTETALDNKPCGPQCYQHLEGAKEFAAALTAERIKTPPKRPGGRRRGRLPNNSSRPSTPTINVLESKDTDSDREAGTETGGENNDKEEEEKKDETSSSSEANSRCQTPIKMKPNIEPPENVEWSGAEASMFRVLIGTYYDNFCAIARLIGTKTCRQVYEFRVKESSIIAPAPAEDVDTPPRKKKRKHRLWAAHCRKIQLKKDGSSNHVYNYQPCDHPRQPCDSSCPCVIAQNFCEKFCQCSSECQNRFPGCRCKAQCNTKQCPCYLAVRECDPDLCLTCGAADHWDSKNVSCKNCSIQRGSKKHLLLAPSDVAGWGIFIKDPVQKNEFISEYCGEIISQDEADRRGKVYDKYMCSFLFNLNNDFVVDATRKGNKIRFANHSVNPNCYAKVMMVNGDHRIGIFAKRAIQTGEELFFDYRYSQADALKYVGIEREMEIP
UniProt P27338, whole entry: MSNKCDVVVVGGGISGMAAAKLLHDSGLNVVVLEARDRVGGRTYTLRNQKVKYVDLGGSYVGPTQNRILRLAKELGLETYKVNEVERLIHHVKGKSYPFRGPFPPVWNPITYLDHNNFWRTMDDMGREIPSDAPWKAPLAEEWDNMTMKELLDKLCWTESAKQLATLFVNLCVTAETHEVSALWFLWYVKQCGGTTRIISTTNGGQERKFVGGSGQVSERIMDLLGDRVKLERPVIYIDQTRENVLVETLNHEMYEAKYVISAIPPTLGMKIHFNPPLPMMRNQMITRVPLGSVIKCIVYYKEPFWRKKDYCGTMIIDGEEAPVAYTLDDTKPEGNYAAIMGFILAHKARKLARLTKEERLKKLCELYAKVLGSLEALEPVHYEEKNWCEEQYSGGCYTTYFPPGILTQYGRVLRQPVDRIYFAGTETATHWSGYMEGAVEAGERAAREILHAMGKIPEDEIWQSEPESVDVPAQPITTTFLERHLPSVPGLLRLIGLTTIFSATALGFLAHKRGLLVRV
UniProt P21860, 20-1342: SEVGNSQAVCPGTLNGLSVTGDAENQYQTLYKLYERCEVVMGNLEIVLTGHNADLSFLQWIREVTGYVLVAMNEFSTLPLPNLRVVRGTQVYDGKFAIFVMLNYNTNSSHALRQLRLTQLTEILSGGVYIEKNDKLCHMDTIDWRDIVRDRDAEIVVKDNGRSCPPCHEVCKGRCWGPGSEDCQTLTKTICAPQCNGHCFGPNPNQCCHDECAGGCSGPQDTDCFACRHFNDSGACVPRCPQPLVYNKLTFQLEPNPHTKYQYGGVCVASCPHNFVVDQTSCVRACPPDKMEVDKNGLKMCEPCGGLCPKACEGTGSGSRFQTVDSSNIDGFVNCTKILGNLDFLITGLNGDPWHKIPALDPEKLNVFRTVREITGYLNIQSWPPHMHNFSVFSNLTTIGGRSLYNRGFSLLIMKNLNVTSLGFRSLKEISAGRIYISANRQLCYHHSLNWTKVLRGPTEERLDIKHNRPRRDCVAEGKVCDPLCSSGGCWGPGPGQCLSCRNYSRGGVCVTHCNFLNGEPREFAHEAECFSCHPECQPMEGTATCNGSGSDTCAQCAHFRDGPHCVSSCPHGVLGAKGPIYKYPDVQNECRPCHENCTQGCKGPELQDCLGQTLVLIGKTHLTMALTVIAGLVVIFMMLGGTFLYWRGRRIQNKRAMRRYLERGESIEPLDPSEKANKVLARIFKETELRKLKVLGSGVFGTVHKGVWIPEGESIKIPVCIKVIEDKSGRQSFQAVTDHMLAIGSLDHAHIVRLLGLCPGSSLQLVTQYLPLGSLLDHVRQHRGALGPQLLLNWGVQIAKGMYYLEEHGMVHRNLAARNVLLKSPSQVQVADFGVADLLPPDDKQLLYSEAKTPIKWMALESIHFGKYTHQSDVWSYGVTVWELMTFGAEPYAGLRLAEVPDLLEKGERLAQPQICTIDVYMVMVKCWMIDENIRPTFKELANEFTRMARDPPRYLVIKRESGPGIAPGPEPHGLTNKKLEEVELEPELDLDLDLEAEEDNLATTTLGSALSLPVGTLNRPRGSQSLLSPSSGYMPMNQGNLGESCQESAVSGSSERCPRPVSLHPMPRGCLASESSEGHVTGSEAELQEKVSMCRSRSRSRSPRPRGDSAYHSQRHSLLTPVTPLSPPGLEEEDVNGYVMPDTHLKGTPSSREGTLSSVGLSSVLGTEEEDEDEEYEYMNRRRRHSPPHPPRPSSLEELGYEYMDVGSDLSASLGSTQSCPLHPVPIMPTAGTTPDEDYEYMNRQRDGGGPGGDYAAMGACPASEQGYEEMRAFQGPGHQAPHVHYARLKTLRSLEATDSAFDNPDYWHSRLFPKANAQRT

Experiments:
EZH2 [1] = target: T1, EZH2 (Homo sapiens, UniProt Q15910); conditions: Table 19, EZH2; read-out: pKi or IC50 (converted); cited from earlier work
MAO B = MAO B (Homo sapiens, UniProt P27338); conditions: Table 18, MAO B (second value or marked B); read-out: Select MAOs A and B; cited from earlier work
EZH2 [2] = target: T1, EZH2; conditions: cited from earlier work
ErbB3/HER3 = ErbB3/HER3 (Homo sapiens, UniProt P21860); conditions: read-out: HER 3 pKi or IC50 (converted); cited from earlier work

SMILES: CCN(c1cc(C#CCN2CCOCC2)cc(C(=O)NCc2c(C)cc(C)[nH]c2=O)c1C)[C@H]1CC[C@H](N(C)CCOC)CC1 [EPZ-011989]
- IC50 (EZH2 [1]): < 3 nM

SMILES: N[C@H]1CC[C@H](N[C@@H]2C[C@H]2c2ccccc2)CC1 (relative stereo) [ORY-1001]
- IC50 (MAO B): > 100000 nM

SMILES: CCCc1cc(C)[nH]c(=O)c1CNC(=O)c1cc(-c2ccnc(N3CCN(C)CC3)c2)cc2c1cnn2C(C)C [GSK343]
- IC50 (EZH2 [1]): 1.2 nM

SMILES: Cc1cc(C)c(CNC(=O)c2cc(Cl)c3c(c2C)O[C@@](C)([C@H]2CC[C@H](N(C)C)CC2)O3)c(=O)[nH]1 [Valemetostat]
- Lit Cell Poten (EZH2 [2]): 25 to 250 nM

SMILES: CNC(=O)CN1CCC(Oc2cc3c(Nc4cccc(Cl)c4F)ncnc3cc2OC)CC1 [Sapitinib/AZD8931/]
- IC50 (ErbB3/HER3): 4 nM
